Laboratory results reported in patent US9221831B2, “Buprenorphine analogs” (dated 2015).

Chains of the proteins cited; added tags and fusions are not shown.
UniProt P41145, whole entry: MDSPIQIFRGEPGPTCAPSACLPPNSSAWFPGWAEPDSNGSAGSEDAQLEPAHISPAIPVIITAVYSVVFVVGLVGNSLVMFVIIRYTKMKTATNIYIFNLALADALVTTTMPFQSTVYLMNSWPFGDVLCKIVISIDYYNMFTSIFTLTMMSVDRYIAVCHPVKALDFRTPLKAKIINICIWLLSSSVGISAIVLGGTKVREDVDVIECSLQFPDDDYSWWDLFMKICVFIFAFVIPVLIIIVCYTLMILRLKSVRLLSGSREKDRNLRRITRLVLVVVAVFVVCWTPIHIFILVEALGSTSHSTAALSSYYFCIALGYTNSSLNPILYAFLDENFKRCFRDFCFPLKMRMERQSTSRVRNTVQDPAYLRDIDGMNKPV
UniProt P41146, whole entry: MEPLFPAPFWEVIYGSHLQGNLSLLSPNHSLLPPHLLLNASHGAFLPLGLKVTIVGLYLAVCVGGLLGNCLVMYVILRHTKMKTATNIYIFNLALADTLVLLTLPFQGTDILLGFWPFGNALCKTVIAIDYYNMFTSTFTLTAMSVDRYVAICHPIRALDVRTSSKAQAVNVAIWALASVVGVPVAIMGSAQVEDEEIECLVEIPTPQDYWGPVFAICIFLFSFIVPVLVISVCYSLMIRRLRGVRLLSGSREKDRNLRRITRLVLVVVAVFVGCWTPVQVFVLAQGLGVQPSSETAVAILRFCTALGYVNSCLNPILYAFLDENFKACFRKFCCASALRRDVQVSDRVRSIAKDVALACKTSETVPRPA
UniProt P35372, whole entry: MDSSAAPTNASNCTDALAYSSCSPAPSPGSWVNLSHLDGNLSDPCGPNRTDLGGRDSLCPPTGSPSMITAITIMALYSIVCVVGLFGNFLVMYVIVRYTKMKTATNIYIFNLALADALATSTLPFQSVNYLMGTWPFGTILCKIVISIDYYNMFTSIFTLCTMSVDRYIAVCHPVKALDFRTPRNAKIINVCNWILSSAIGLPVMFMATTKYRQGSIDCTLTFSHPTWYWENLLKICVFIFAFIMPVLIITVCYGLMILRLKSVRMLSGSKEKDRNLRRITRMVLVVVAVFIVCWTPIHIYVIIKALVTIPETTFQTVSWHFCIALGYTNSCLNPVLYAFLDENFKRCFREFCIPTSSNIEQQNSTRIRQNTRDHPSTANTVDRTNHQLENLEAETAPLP

What was measured:
κ opioid receptor = κ opioid receptor (Homo sapiens (Human), UniProt P41145); experiment: κ-opioid receptor functional assay ([35S]GTPγS); settings: [35S]GTPγS functional assay
δ opioid receptor = δ opioid receptor (Homo sapiens (Human), UniProt P41143); experiment: δ-opioid receptor functional assay ([35S]GTPγS); settings: [35S]GTPγS functional assay
[1] = biological target: T1, human opioid receptor-like (ORL-1) (Homo sapiens (Human), UniProt P41146); experiment: ORL-1 receptor functional assay ([35S]GTPγS); settings: [35S]GTPγS functional assay
μ-opioid receptor = μ-opioid receptor (Homo sapiens (Human), UniProt P35372); experiment: μ-opioid receptor functional assay ([35S]GTPγS); settings: [35S]GTPγS functional assay
[2] = biological target: T1, human opioid receptor-like (ORL-1); experiment: ORL-1 receptor binding assay ([3H]-nociceptin)

Row | Structure (SMILES) | GTPγS Opioid Receptor κ Emax (κ opioid receptor) | GTPγS Opioid Receptor δ Emax (δ opioid receptor) | GTPγS ORL-1 Emax [1] | GTPγS Opioid Receptor μ EC50 (μ-opioid receptor) | GTPγS Opioid Receptor μ Emax (μ-opioid receptor) | Binding Affinity, ORL-1 [2] | GTPγS Opioid Receptor κ EC50 (κ opioid receptor)
1 | CO[C@]12CC[C@@]3(C[C@@H]1COCc1ccccc1)[C@H]1Cc4ccc(N)c5c4[C@@]3(CCN1C)[C@H]2O5 | 81.00% | 82.33% |  |  |  |  | 
2 | C=Cc1ccc2c3c1O[C@H]1[C@@]4(OC)CC[C@@]5(C[C@@H]4COCc4ccccc4)[C@@H](C2)N(C)CC[C@]315 | 82.67% | 87.67% | 35.67% |  |  |  | 
3 | COc1ccc2c3c1O[C@H]1[C@@]4(OC)CC[C@@]5(C[C@@H]4COCc4cccc(NC(N)=O)c4)[C@@H](C2)N(CC2CC2)CC[C@]315 | 53.33% | 98.33% |  | Inactive |  |  | 
4 | CO[C@]12CC[C@@]3(C[C@@H]1COCc1cc4ccccc4s1)[C@H]1Cc4ccc(OCCO)c5c4[C@@]3(CCN1CC1CC1)[C@H]2O5 | 73.33% | 41.25% |  |  | 25.67% |  | 
5 | COc1ccc2c3c1O[C@H]1[C@@]4(O)CC[C@@]5(C[C@@H]4COCc4ccccc4)[C@@H](C2)N(CC2CC2)CC[C@]315 |  |  |  |  | 37.67% |  | 
6 | CO[C@]12CC[C@@]3(C[C@@H]1COC(=O)[C@@H](N)Cc1ccccc1)[C@H]1Cc4ccc(O)c5c4[C@@]3(CCN1CC1CC1)[C@H]2O5 | 63.33% | 51.25% |  | Inactive |  |  | 
7 | CCOC(=O)CC[C@H]1[C@H](COCc2ccccc2)[C@]2(OC)CC[C@]13[C@H]1Cc4ccc(OC)c5c4[C@@]3(CCN1CC1CC1)[C@H]2O5 | 10.83% |  |  |  | 26.60% |  | 
8 | COc1ccc2c3c1O[C@H]1[C@@]4(OC)CC[C@@]5(C[C@@H]4CS(=O)(=O)Cc4ccccc4)[C@@H](C2)N(CC2CC2)CC[C@]315 | 65.00% |  |  |  | 61.67% |  | 
9 | CO[C@]12CC[C@@]3(C[C@@H]1COc1ccc(-n4ccnc4)cc1)[C@H]1Cc4ccc(O)c5c4[C@@]3(CCN1CC1CC1)[C@H]2O5 |  | 23.33% |  | Inactive |  | Inactive | Inactive
10 | COc1ccc2c3c1O[C@H]1[C@@]4(OC)CC[C@@]5(C[C@@H]4CN(Cc4ccccc4)C(C)=O)[C@@H](C2)N(CC2CC2)CC[C@]315 | 101.33% | 71.33% |  |  | 56.40% |  | 
11 | CO[C@]12CC[C@@]3(C[C@@H]1COCc1ccccc1)[C@H]1Cc4ccc(OCc5nn[nH]n5)c5c4[C@@]3(CCN1CC1CC1)[C@H]2O5 | 88.00% | 94.67% |  |  | 73.67% | Inactive | 
12 | COc1ccc2c3c1O[C@H]1[C@@]4(OC)CC[C@@]5(C[C@@H]4COCc4ccccc4)[C@@H](C2)NCC[C@]315 | 89.67% | 115.33% | 38.00% |  |  |  | 
13 | CC[C@H](C)[C@H](N)C(=O)OC[C@H]1C[C@@]23CC[C@]1(OC)[C@@H]1Oc4c(OC)ccc5c4[C@@]12CCN(CC1CC1)[C@@H]3C5 | 52.00% |  |  | Inactive |  |  | 
14 | CO[C@]12CC[C@@]3(C[C@@H]1COCc1ccccc1)[C@H]1Cc4ccc(C(N)=O)c5c4[C@@]3(CCN1C)[C@H]2O5 | 87.33% | 101.00% |  |  |  |  | 
15 | COCCOCCOCCOCCOCCO[C@]12CC[C@@]3(C[C@@H]1COCc1ccccc1)[C@H]1Cc4ccc(OC)c5c4[C@@]3(CCN1CC1CC1)[C@H]2O5 |  |  |  |  | 34.50% |  | 
16 | CCCc1cc(COC[C@H]2C[C@@]34CC[C@]2(OC)[C@@H]2Oc5c(OC)ccc6c5[C@@]23CCN(C)[C@@H]4C6)on1 | 88.00% |  |  |  |  | Inactive | 
17 | COCCOCCOCCOc1ccc2c3c1O[C@H]1[C@@]4(OC)CC[C@@]5(C[C@@H]4COCc4ccccc4)[C@@H](C2)N(CC2CC2)CC[C@]315 | 95.33% | 89.00% |  |  | 65.50% |  | 
18 | CO[C@]12CC[C@@]3(C[C@@H]1COCc1ccccc1)[C@H]1Cc4ccc(F)c5c4[C@@]3(CCN1C)[C@H]2O5 | 77.33% | 76.00% | 50.00% |  |  |  | 
19 | COc1ccc2c3c1O[C@H]1[C@@]4(OC)CC[C@@]5(C[C@@H]4COC(=O)[C@@H](N)CC(C)C)[C@@H](C2)N(CC2CC2)CC[C@]315 | 57.00% | 98.00% |  |  | 17.00% |  | 
20 | COc1ccc2c3c1O[C@H]1[C@@]4(OC)CC[C@@]5(C[C@@H]4C[S+]([O-])Cc4ccccc4)[C@@H](C2)N(CC2CC2)CC[C@]315 (stereo partly shown) | 97.00% | 61.33% |  |  | 45.33% |  | 

Row | Structure (SMILES) | GTPγS Opioid Receptor κ Emax (κ opioid receptor) | GTPγS Opioid Receptor δ Emax (δ opioid receptor) | GTPγS ORL-1 Emax [1] | GTPγS Opioid Receptor μ EC50 (μ-opioid receptor) | GTPγS Opioid Receptor μ Emax (μ-opioid receptor) | Binding Affinity, ORL-1 [2] | GTPγS Opioid Receptor κ EC50 (κ opioid receptor)
21 | CO[C@]12CC[C@@]3(C[C@@H]1COCc1ccccc1C)[C@H]1Cc4ccc(OCCO)c5c4[C@@]3(CCN1C)[C@H]2O5 | 121.67% | 74.67% | 65.25% |  |  |  | 
22 | COc1ccc2c3c1O[C@H]1[C@@]4(OC)CC[C@@]5(C[C@@H]4C(C)(C)OCc4ccccc4)[C@@H](C2)N(CC2CC2)CC[C@]315 | 91.00% |  |  |  | 19.75% |  | 
23 | COc1ccc2c3c1O[C@H]1[C@@]4(OC)CC[C@@]5(C[C@@H]4CNCc4ccccc4)[C@@H](C2)N(CC2CC2)CC[C@]315 | 98.25% | 82.25% | 99.00% |  | 53.50% |  | 
24 | CO[C@]12CC[C@@]3(C[C@@H]1COCc1ccccc1)[C@H]1Cc4ccc(NS(C)(=O)=O)c5c4[C@@]3(CCN1C)[C@H]2O5 | 76.67% | 117.67% |  |  |  |  | 
25 | CC[C@H](C)[C@H](N)C(=O)OC[C@H]1C[C@@]23CC[C@]1(OC)[C@@H]1Oc4c(O)ccc5c4[C@@]12CCN(CC1CC1)[C@@H]3C5 | 18.25% |  |  |  | 19.00% |  | 
26 | CO[C@]12CC[C@@]3(C[C@@H]1COc1ccc(-n4ccnc4)cc1)[C@H]1Cc4ccc(O)c5c4[C@@]3(CCN1C)[C@H]2O5 | 37.33% | 74.67% |  |  |  | Inactive | 
27 | CO[C@]12CC[C@@]3(C[C@@H]1COCc1ccccc1)[C@H]1Cc4ccc(OCC(N)=O)c5c4[C@@]3(CCN1CC1CC1)[C@H]2O5 | 80.67% | 104.25% |  |  | 81.33% |  | 
28 | CO[C@]12CC[C@@]3(C[C@@H]1COCc1ccccc1)[C@H]1Cc4ccc(O)c5c4[C@@]3(CCN1)[C@H]2O5 | 96.00% | 115.33% | 68.50% |  |  |  | 
29 | COc1ccc2c3c1O[C@H]1[C@@]4(OC)CC[C@@]5(C[C@@H]4CSCc4ccccc4)[C@@H](C2)N(CC2CC2)CC[C@]315 | 89.00% | 53.00% |  |  | 19.33% |  | 
30 | COc1ccc2c3c1O[C@H]1[C@@]4(c5ccccc5)CC[C@@]5(C[C@@H]4COCc4ccccc4)[C@@H](C2)N(CC2CC2)CC[C@]315 | 89.67% |  |  |  | 11.00% |  | 
31 | CO[C@]12CC[C@@]3(C[C@@H]1COC(=O)[C@H](C)N)[C@H]1Cc4ccc(O)c5c4[C@@]3(CCN1CC1CC1)[C@H]2O5 | 23.25% |  |  | Inactive |  |  | 
32 | COc1ccc2c3c1O[C@H]1[C@@]4(OC)CC[C@@]5(C[C@@H]4COC(=O)[C@@H](N)Cc4ccccc4)[C@@H](C2)N(CC2CC2)CC[C@]315 | 74.33% | 76.33% |  | Inactive |  |  | 
33 | COCCOCCOCCOCCOCCOc1ccc2c3c1O[C@H]1[C@@]4(OC)CC[C@@]5(C[C@@H]4COCc4ccccc4)[C@@H](C2)N(CC2CC2)CC[C@]315 | 102.67% | 81.00% |  |  | 56.00% | Inactive | 
34 | COC(=O)COc1ccc(COC[C@H]2C[C@@]34CC[C@]2(OC)[C@@H]2Oc5c(OC)ccc6c5[C@@]23CCN(CC2CC2)[C@@H]4C6)cc1 | 11.33% | 47.67% |  | Inactive |  | Inactive | 
35 | COc1ccc2c3c1O[C@H]1[C@@]4(OC)CC[C@@]5(C[C@@H]4COc4ccc(-n6ccnc6)cc4)[C@@H](C2)N(CC2CC2)CC[C@]315 | 45.33% | 70.33% |  | Inactive |  | Inactive | 
36 | CO[C@]12CC[C@@]3(C[C@@H]1COCc1ccccc1)[C@H]1Cc4ccc(C(N)=O)c5c4[C@@]3(CCN1CC1CC1)[C@H]2O5 | 87.00% |  |  |  | 21.25% |  | 
37 | COc1ccc2c3c1O[C@H]1[C@@]4(OC)CC[C@@]5(C[C@@H]4CN(Cc4ccccc4)S(C)(=O)=O)[C@@H](C2)N(CC2CC2)CC[C@]315 | 71.67% | 49.20% |  |  | 26.33% |  | 
38 | COCCOCCOCCO[C@]12CC[C@@]3(C[C@@H]1COCc1ccccc1)[C@H]1Cc4ccc(OC)c5c4[C@@]3(CCN1CC1CC1)[C@H]2O5 |  |  |  |  | 34.50% |  | 
39 | CO[C@]12CC[C@@]3(C[C@@H]1COCc1cccc(NC(=O)c4ccccc4)c1)[C@H]1Cc4ccc(O)c5c4[C@@]3(CCN1CC1CC1)[C@H]2O5 | 86.00% |  |  | Inactive |  |  | 
40 | CCOC(=O)CC[C@H]1[C@H](COCc2ccccc2)[C@@]23CC[C@]1(OC)[C@@H]1Oc4c(OC)ccc5c4[C@@]12CCN(CC1CC1)[C@@H]3C5 | 14.33% |  |  |  | 20.83% |  | 
